# Reference: patent US6906042B2, “Micelles” (Eisai Co., Ltd., priority 2000, dated 2005)
# Like-named read-outs stand apart in the source and are kept apart here.
# Legend:
# [1] = E5564 micelle hydrodynamic diameter before and after simulated I.V. infusion using administration equipment (DLS)
# [2] = Micelle hydrodynamic diameter of E5564 through NaOH dissolution, lactose phosphate buffer, freeze-drying and re-hydration
compound,measurement,setting,value
CCCCCC/C=C\CCCCCCCCCC(=O)N[C@H]1[C@H](OC[C@H]2O[C@H](OP(=O)(O)O)[C@H](NC(=O)CC(=O)CCCCCCCCCCC)[C@@H](OCCCCCCCCCC)[C@@H]2O)OC(COC)[C@@H](OP(=O)(O)O)[C@@H]1OCC[C@@H](CCCCCCC)OC (stereo partly shown) [Compound E5564],micelle hydrodynamic diameter change with added NaCl,24 hours after addition of 0.01 M NaCl,unchanged
same,micelle hydrodynamic diameter change with added NaCl,after 24 hours with addition of 0.03 M NaCl or greater,Changes in micelle hydrodynamic diameter were observed
same,micelle hydrodynamic diameter change with added NaCl,immediately after addition of up to 0.07 M NaCl,no immediately appreciable change
same,Mean Micelle Hydrodynamic Diameter (nm) by DLS,[1]; 0.14 mg/mL - 5.0 mL/hr - 30 minutes,8.7 nm
same,Mean Micelle Hydrodynamic Diameter (nm) by DLS,[1]; 0.14 mg/mL - control,7.7 nm
same,Mean Micelle Hydrodynamic Diameter (nm) by DLS,[1]; 0.5 mg/mL - 1.4 mL/hr - 30 minutes,7.5 nm
same,Mean Micelle Hydrodynamic Diameter (nm) by DLS,[1]; 0.5 mg/mL - control,7.5 nm
same,micelle hydrodynamic diameter,"[2]; aqueous sodium hydroxide solution, pH 10.1",7 nm
same,micelle hydrodynamic diameter,[2]; freeze-dried product re-hydrated with water,7 nm
same,micelle hydrodynamic diameter,"[2]; lactose containing phosphate buffer solution, pH 7-8",7 nm
